Test: Cytotoxicity against human U2OS cells assessed as growth inhibition after 96 hrs by SRB assay
Assay type: functional, cell-based

**Q.** For `CCc1cnn2c(NCc3ccc[n+]([O-])c3)cc(N3CCCC[C@H]3CCO)nc12` [DINACICLIB], which IC50 is on record?
**A.** The IC50 was 6 nM.

Reference: ChEMBL document CHEMBL3861941, “Discovery of 4,6-disubstituted pyrimidines as potent inhibitors of the heat shock factor 1 (HSF1) stress pathway and CDK9” (Medchemcomm, 2016)
